Data on one compound can be found in article PMC8465394, “An Arsenite Relay between PSMD14 and AIRAP Enables Revival of Proteasomal DUB Activity” (2021).

Chains of the proteins cited; added tags and fusions are not shown. Lines headed by an entry give the natural chain unless they say otherwise; changes in a name come on top.
UniProt Q9JII7: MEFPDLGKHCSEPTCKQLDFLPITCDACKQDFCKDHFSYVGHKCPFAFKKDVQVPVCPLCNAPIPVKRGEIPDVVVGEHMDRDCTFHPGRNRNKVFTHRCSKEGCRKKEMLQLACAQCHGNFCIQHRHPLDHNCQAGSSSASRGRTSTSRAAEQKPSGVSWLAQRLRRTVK

The test addresses AIRAP (Mus musculus, UniProt Q9JII7). The test can be described thus: label-free microscale thermophoresis, intrinsic Trp fluorescence. The note with it: 1 μM AIRAP, 0.6 nM–20 μM arsenite, 50 mM Hepes pH 7.5, 150 mM NaCl, Tween-20. For orientation: In MST a laser heats a spot of the sample, and binding alters the fluorescence response.

For the compound `O[As](O)O`, the Kd came out at 7 nM.

One may read the Kd as a measure of binding affinity in units of concentration. Read a low Kd as tighter binding.
